Biological target: 14-3-3ζ nhpSer58 with a FLAG tag at its N-terminus (Homo sapiens (Human)) (UniProt P63104)

Row | Substance | FC
1 | NCK-interacting protein with SH3 domain [OS = Homo sapiens] (from UniProt Q9NZQ3 1-722) | 0.178 fold
2 | 60S ribosomal protein L32 [OS = Homo sapiens] (from UniProt P62910 2-135) (other; other documents disagree on this pair) | 0.0388 fold
3 | 28S ribosomal protein S27, mitochondrial [OS = Homo sapiens] (from UniProt Q92552 37-414) | 5.72 fold
4 | SRA stem-loop-interacting RNA-binding protein, mitochondrial [OS = Homo sapiens] (from UniProt Q9GZT3 1-109) | 4.82 fold
5 | 39S ribosomal protein L14, mitochondrial [OS = Homo sapiens] (from UniProt Q6P1L8 31-145) (other; other documents disagree on this pair) | 0.0318 fold
